# AlphaSeq binding of Ab-14 light chain variants to a spike HR2 peptide

Reference: Engelhart et al. 2022, doi:10.1038/s41597-022-01779-4. File: FLAb, binding data.

All variants were tested on one target, the spike HR2 peptide PDVDLGDISGINAS (SARS-CoV-2).

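The parent was found by panning a naive human phage display library on the peptide. Library AAYL50 holds single substitutions and randomly drawn double and triple substitutions in the CDRs. AlphaSeq pools MATa yeast showing the antibodies with MATalpha yeast showing the peptide. The frequency of each diploid, read from paired DNA barcodes, reflects how well the two displayed proteins bind. A regression on co-assayed BCL2-family reference pairs converts the normalised counts of each replicate to an apparent Kd. Each pool was mated in three replicate cultures.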

Ab-14 is the parent antibody, in scFv form: VH, then the linker GGGGSGGGGSGGGGS, then VL. The heavy chain is unchanged in all variants.
VH: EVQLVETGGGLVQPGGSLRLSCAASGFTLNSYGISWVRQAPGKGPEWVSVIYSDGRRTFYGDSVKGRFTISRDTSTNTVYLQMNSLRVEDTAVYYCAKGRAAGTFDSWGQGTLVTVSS
VL: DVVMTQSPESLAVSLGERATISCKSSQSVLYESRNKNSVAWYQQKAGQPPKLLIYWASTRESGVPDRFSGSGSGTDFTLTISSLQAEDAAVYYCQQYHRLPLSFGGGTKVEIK

The whole VL of each variant is written out. Every variant below is changed at Y31 of the VL (sequential numbering). Values are log10 of the apparent Kd in nM; lower means stronger binding. Averages over replicates are reported, and they cover detected replicates only. "nd" means that the variant was in the library but no mating with the target was seen in that replicate; the authors take this as a sign of poor binding, and no number exists.

With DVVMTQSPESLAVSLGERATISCKESQSVLWEFRNKNSVAWYQQKAGQPPKLLIYWASTRESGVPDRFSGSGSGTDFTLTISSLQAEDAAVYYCQQYHRLPLSFGGGTKVEIK the result was 2.18, 1.89, 2.65 (mean 2.24).
With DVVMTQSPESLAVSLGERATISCKDSQSVLKESRNKNSVAWYQQKAGQPPKLLIYWASTRESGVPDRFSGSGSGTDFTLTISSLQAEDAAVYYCQQYHRLSLSFGGGTKVEIK the result was nd, nd, nd.
With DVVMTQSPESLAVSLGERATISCKSSQSVLMESRNKNSVAWYQQKAGQPPKLLIYWASTREMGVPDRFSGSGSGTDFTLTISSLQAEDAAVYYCQQYCRLPLSFGGGTKVEIK the result was 2.55, 1.81, 2.30 (mean 2.22).
With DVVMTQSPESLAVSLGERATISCKSSYSVLPESRNKNSVAWYQQKAGQPPKLLIYWASTFESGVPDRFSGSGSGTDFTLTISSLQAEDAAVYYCQQYHRLPLSFGGGTKVEIK the result was 3.95, nd, nd.
With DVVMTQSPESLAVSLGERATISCKSSQSVLEESRNKNSVEWYQQKAGQPPKLLIYWASTRESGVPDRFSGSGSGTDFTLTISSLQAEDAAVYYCQQYHRRPLSFGGGTKVEIK the result was 4.68, 4.68, nd (mean 4.68).
With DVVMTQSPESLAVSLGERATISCKSSQSVLSESDWKNSVAWYQQKAGQPPKLLIYWASTRESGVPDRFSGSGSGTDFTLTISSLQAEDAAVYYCQQYHRLPLSFGGGTKVEIK the result was 3.13, 2.24, 3.37 (mean 2.91).
With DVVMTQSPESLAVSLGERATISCKSSQSVLLESRNKNVVAWYQQKAGQPPKLLIYWASTRESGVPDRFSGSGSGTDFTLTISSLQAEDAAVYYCQVYHRLPLSFGGGTKVEIK the result was 6.03, 3.94, 6.23 (mean 5.40).
With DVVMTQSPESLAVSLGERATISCKSQQSVLPESRNKNSVAWYQQKAGQPPKLLIYNASTRESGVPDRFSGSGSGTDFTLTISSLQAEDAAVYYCQQYHRLPLSFGGGTKVEIK the result was -0.43, -0.04, -0.29 (mean -0.26).
With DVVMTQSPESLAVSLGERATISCKSSQSVLQESPNKNSVFWYQQKAGQPPKLLIYWASTRESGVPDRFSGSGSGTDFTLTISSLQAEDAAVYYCQQYHRLPLSFGGGTKVEIK the result was nd, nd, nd.
With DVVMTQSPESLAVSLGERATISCKHSQSVLDESRNKNSVAWYQQKAGQPPKLLIYSASTRESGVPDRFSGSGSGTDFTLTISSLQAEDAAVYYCQQYHRLPLSFGGGTKVEIK the result was -0.66, -0.14, -0.55 (mean -0.45).
With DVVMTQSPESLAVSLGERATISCKSSQSVLQESRNKNSVAWYQQKAGQPPKLLIYWASDRESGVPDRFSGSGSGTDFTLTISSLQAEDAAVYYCQQYHRLPDSFGGGTKVEIK the result was nd, 4.34, nd.
With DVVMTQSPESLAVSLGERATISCKSSQSVLPESRNKNSVAWYQQKAGQPPKLLIYWASTREHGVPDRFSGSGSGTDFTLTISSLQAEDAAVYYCQQYHRLPLSFGGGTKVEIK the result was 1.57, 1.41, 1.76 (mean 1.58).
With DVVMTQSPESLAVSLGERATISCKSSQSVLMESRNKNSVAWYQQKAGQPPKLLIYWASTRESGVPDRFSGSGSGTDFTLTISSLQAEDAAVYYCQQYHPLPLSFGGGTKVEIK the result was nd, nd, nd.
With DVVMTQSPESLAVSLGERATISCKSSQSVLTESRNKNTVAWYQQKAGQPPKLLIYWASTRESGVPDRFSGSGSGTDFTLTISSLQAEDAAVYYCQQCHRLPLSFGGGTKVEIK the result was 1.97, 2.03, 2.26 (mean 2.09).
With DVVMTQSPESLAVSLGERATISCKASQSVLIISRNKNSVAWYQQKAGQPPKLLIYWASTRESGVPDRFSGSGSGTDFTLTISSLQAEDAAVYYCQQYHRLPLSFGGGTKVEIK the result was 2.51, 2.92, 3.92 (mean 3.12).
With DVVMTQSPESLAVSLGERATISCKSSQSVLRESRNRNSVAWYQQKAGQPPKLLIYAASTRESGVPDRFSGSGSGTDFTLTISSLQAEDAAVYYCQQYHRLPLSFGGGTKVEIK the result was 0.67, 0.67, 0.34 (mean 0.56).
With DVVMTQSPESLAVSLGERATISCKSSQSVLSESRNWNSVAWYQQKAGQPPKLLIYAASTRESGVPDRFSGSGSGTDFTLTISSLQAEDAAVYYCQQYHRLPLSFGGGTKVEIK the result was -0.30, 0.11, -0.11 (mean -0.10).
With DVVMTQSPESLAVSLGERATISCKMSQSVAEESRNKNSVAWYQQKAGQPPKLLIYWASTRESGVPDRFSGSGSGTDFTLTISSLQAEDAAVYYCQQYHRLPLSFGGGTKVEIK the result was -0.26, 0.05, -0.11 (mean -0.11).
With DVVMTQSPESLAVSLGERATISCKSSQGVLIESRNKNSVAWYQQKAGQPPKLLIYWASTRESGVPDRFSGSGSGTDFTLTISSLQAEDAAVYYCQQYHRLPPSFGGGTKVEIK the result was 4.58, 4.38, 5.01 (mean 4.66).
With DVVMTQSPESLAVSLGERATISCPSSQSVLAESRNKNSVAWYQQKAGQPPKLLIYWAETRESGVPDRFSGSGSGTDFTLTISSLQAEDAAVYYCQQYHRLPLSFGGGTKVEIK the result was nd, nd, 5.68.

Repeated from above, the 2 best binders with a signal in all replicates:

VL,"log10 Kd, replicates","log10 Kd (nM), mean"
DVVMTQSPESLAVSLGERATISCKHSQSVLDESRNKNSVAWYQQKAGQPPKLLIYSASTRESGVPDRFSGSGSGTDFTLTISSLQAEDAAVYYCQQYHRLPLSFGGGTKVEIK,"-0.66, -0.14, -0.55",-0.45
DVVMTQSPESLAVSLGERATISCKSQQSVLPESRNKNSVAWYQQKAGQPPKLLIYNASTRESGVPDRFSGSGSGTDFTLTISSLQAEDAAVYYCQQYHRLPLSFGGGTKVEIK,"-0.43, -0.04, -0.29",-0.26

For reference, the parent read 0.65 as the reference entry and 1.68 as a member of this library. Empty control strains, which show no peptide, gave a signal in 18% of pairings with library AAYL50; the median was 4.19 and 95% of these signals were weaker than 2.99. No background was subtracted.